# Source: patent publication US10695337B2, “Piperidin-4-yl azetidine derivatives as JAK1 inhibitors” (Incyte Corporation, priority 2010, dated 2020)
# Biological target: human JAK1 (a.a. 837-1142)
# Assay: In vitro JAK kinase assay (HTRF, phosphorylation of a biotinylated peptide), JAK1
# Type: biochemical
# Conditions: measured at 1 mM ATP
# Procedure: Compounds herein were tested for inhibitory activity of JAK targets according to the following in vitro assay described in Park et al., Analytical Biochemistry 1999, 269, 94-104. The catalytic domains of human JAK1 (a.a. 837-1142), Jak2 (a.a. 828-1132) and Jak3 (a.a. 781-1124) with an N-terminal His tag were expressed using baculovirus in insect cells and purified. The catalytic activity of JAK1, JAK2 or JAK3 was assayed by measuring the phosphorylation of a biotinylated peptide. The phosphorylated peptide was detected by homogenous time resolved fluorescence (HTRF). […] Reactions were carried out at room temperature for 1 hr and then stopped with 20 μL 45 mM EDTA, 300 nM SA-APC, 6 nM Eu-Py20 in assay buffer (Perkin Elmer, Boston, Mass.). Binding to the Europium labeled antibody took place for 40 minutes and HTRF signal was measured on a Fusion plate reader (Perkin Elmer, Boston, Mass.).
row,IC50 Ratio JAK2/JAK1,Structure (SMILES)
1,3.8,"N#CCC1(n2cc(-c3ncnc4[nH]ccc34)cn2)CN(C2CCN(C(=O)c3cccc(Cl)c3)CC2)C1 [Example 19, {1-[1-(3-chlorobenzoyl)piperidin-4-yl]-3-[4-(7H-pyrrolo[2,3-d]pyrimidin-4-yl)-1H-pyrazol-1-yl]azetidin-3-yl}acetonitrile]"
2,6.2,"N#CCC1(n2cc(-c3ncnc4[nH]ccc34)cn2)CN(C2CCN(C(=O)c3ccc(C#N)c(F)c3)CC2)C1 [Example 66, 4-[(4-{3-(cyanomethyl)-3-[4-(7H-pyrrolo[2,3-d]pyrimidin-4-yl)-1H-pyrazol-1-yl]azetidin-1-yl}piperidin-1-yl)carbonyl]-2-fluorobenzonitrile]"
3,3.8,"COc1cc(C(F)(F)F)sc1C(=O)N1CCC(N2CC(CC#N)(n3cc(-c4ncnc5[nH]ccc45)cn3)C2)CC1 [Example 70, {1-{1-[3-methoxy-5-(trifluoromethyl)-2-thienylcarbonyl]piperidin-4-yl}-3-[4-(7H-pyrrolo[2,3-d]pyrimidin-4-yl)-1H-pyrazol-1-yl]azetidin-3-yl}acetonitrile]"
4,3.9,"Cc1csc(C(=O)N2CCC(N3CC(CC#N)(n4cc(-c5ncnc6[nH]ccc56)cn4)C3)CC2)c1 [Example 79, {1-{1-[(4-methyl-2-thienyl)carbonyl]piperidin-4-yl}-3-[4-(7H-pyrrolo[2,3-d]pyrimidin-4-yl)-1H-pyrazol-1-yl]azetidin-3-yl}acetonitrile]"
5,1.4,"Cc1ccc(C#N)c(N2CCC(C(=O)N3CCC(N4CC(CC#N)(n5cc(-c6ncnc7[nH]ccc67)cn5)C4)CC3)CC2)n1 [Example 108, 2-{4-[(4-{3-(cyanomethyl)-3-[4-(7H-pyrrolo[2,3-d]pyrimidin-4-yl)-1H-pyrazol-1-yl]azetidin-1-yl}piperidin-1-yl)carbonyl]piperidin-1-yl}-6-methylnicotinonitrile]"
6,2.1,"N#CCC1(n2cc(-c3ncnc4[nH]ccc34)cn2)CN(C2CCN(C(=O)c3ccc(-c4cccnc4)cc3F)CC2)C1 [Example 120, {1-[1-(2-fluoro-4-pyridin-3-ylbenzoyl)piperidin-4-yl]-3-[4-(7H-pyrrolo[2,3-d]pyrimidin-4-yl)-1H-pyrazol-1-yl]azetidin-3-yl} acetonitrile]"
7,2.5,"N#CCC1(n2cc(-c3ncnc4[nH]ccc34)cn2)CN(C2CCN(C(=O)c3ccc(-c4nccs4)c(F)c3)CC2)C1 [Example 122, {1-{1-[3-fluoro-4-(1,3-thiazol-2-yl)benzoyl]piperidin-4-yl}-3-[4-(7H-pyrrolo[2,3-d]pyrimidin-4-yl)-1H-pyrazol-1-yl]azetidin-3-yl}acetonitrile]"
8,22.0,"N#CCC1(n2cc(-c3ncnc4[nH]ccc34)cn2)CN(C2CCN(C(=O)Nc3ccc(F)cc3C(F)(F)F)CC2)C1 [Example 154, 4-{3-(Cyanomethyl)-3-[4-(7H-pyrrolo[2,3-d]pyrimidin-4-yl)-1H-pyrazol-1-yl]azetidin-1-yl}-N-[4-fluoro-2-(trifluoromethyl)phenyl]piperidine-1-carboxamide]"

row,Structure (SMILES),IC50 Ratio JAK2/JAK1
1,"N#CCC1(n2cc(-c3ncnc4[nH]ccc34)cn2)CN(C2CC3CCC(C2)N3C(=O)c2ccnc(C(F)(F)F)c2)C1 (stereo not drawn) [Example 144, (3-[4-(7H-pyrrolo[2,3-d]pyrimidin-4-yl)-1H-pyrazol-1-yl]-1-{8-[2-(trifluoromethyl)isonicotinoyl]-8-azabicyclo[3.2.1]oct-3-yl}azetidin-3-yl)acetonitrile]",3.9
2,"N#CCC1(n2cc(-c3ncnc4[nH]ccc34)cn2)CN(C2CC3CCC(C2)N3C(=O)C2CCCC2)C1 (stereo not drawn) [Example 145, {1-[8-(cyclopentylcarbonyl)-8-azabicyclo[3.2.1]oct-3-yl]-3-[4-(7H-pyrrolo[2,3-d]pyrimidin-4-yl)-1H-pyrazol-1-yl]azetidin-3-yl}acetonitrile]",3.6
3,"N#CCC1(n2cc(-c3ncnc4[nH]ccc34)cn2)CN(C2CC3CCC(C2)N3C(=O)C2CCCCC2)C1 (stereo not drawn) [Example 147, {1-[8-(cyclohexylcarbonyl)-8-azabicyclo[3.2.1]oct-3-yl]-3-[4-(7H-pyrrolo[2,3-d]pyrimidin-4-yl)-1H-pyrazol-1-yl]azetidin-3-yl}acetonitrile]",6.1
4,"N#CCC1(n2cc(-c3ncnc4[nH]ccc34)cn2)CN(C2CC3CCC(C2)N3C(=O)C2CCC(F)(F)CC2)C1 (stereo not drawn) [Example 148, {1-{8-[(4,4-difluorocyclohexyl)carbonyl]-8-azabicyclo[3.2.1]oct-3-yl}-3-[4-(7H-pyrrolo[2,3-d]pyrimidin-4-yl)-1H-pyrazol-1-yl]azetidin-3-yl}acetonitrile]",5.7
